From ChEMBL document CHEMBL3596175, “Synthesis and in vitro kinetic evaluation of N-thiazolylacetamido monoquaternary pyridinium oximes as reactivators of sarin, O-ethylsarin and VX inhibited human acetylcholinesterase (hAChE)” (2015)

Sequences of proteins named here, by UniProt entry; tags and fusion partners are left off. A change or cut given only in a name is not applied to a line headed by its entry.
UniProt P22303: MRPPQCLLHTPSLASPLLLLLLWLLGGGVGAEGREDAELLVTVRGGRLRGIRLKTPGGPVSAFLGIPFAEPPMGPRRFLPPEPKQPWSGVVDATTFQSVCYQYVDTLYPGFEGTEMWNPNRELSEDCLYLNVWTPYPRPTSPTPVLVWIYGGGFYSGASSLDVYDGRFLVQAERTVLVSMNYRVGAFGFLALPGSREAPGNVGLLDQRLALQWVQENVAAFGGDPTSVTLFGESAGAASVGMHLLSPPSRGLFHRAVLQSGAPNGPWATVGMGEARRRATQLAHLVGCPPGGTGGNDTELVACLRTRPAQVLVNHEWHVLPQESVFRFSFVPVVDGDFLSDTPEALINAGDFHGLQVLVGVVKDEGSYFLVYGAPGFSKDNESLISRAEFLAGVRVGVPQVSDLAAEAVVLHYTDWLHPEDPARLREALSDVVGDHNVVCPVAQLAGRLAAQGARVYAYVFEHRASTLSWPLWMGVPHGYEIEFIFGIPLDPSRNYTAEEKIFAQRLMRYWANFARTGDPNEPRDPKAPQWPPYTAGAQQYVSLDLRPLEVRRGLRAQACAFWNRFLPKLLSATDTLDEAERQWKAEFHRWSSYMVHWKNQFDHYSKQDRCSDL

What was measured:
[1] = target: Acetylcholinesterase (Homo sapiens) (UniProt P22303); assay: Reactivation of VX-inhibited human acetylcholinesterase assessed as reactivity rate constant incubated for 60 mins using ATChI substrate by DTNB dye based UV-visible spectrophotometry
[2] = target: Acetylcholinesterase (Homo sapiens) (UniProt P22303); assay: Reactivation of VX-inhibited human acetylcholinesterase assessed as second order rate constant incubated for 60 mins using ATChI substrate by DTNB dye based UV-visible spectrophotometry
[3] = target: Acetylcholinesterase (Homo sapiens) (UniProt P22303); assay: Reactivation of sarin-inhibited human acetylcholinesterase assessed as reactivity rate constant incubated for 60 mins using ATChI substrate by DTNB dye based UV-visible spectrophotometry
[4] = target: Acetylcholinesterase (Homo sapiens) (UniProt P22303); assay: Reactivation of sarin-inhibited human acetylcholinesterase assessed as second order rate constant incubated for 60 mins using ATChI substrate by DTNB dye based UV-visible spectrophotometry
[5] = target: Acetylcholinesterase (Homo sapiens) (UniProt P22303); assay: Reactivation of O-ethylsarin-inhibited human acetylcholinesterase assessed as second order rate constant incubated for 60 mins using ATChI substrate by DTNB dye based UV-visible spectrophotometry
[6] = target: Acetylcholinesterase (Homo sapiens) (UniProt P22303); assay: Reactivation of O-ethylsarin-inhibited human acetylcholinesterase assessed as reactivity rate constant incubated for 60 mins using ATChI substrate by DTNB dye based UV-visible spectrophotometry

Compound | Kr [1] | Kr [2] | Kr [3] | Kr [4] | Kr [5] | Kr [6]
Cc1ccc(-c2csc(NC(=O)C[n+]3cccc(/C=N/O)c3)n2)cc1 | 0.056 min⁻¹ | 6.33 M⁻¹ s⁻¹ | – | – | – | –
CCOC(=O)Cc1csc(NC(=O)C[n+]2ccc(/C=N/O)cc2)n1 | 0.067 min⁻¹ | 86.5 M⁻¹ s⁻¹ | 0.075 min⁻¹ | 26.7 M⁻¹ s⁻¹ | 34.2 M⁻¹ s⁻¹ | 0.072 min⁻¹
CCOC(=O)c1csc(NC(=O)C[n+]2cccc(/C=N/O)c2)n1 | 0.054 min⁻¹ | 15.3 M⁻¹ s⁻¹ | 0.046 min⁻¹ | 10 M⁻¹ s⁻¹ | – | –
O=C(C[n+]1cccc(/C=N/O)c1)Nc1nc(-c2ccccc2)cs1 | 0.094 min⁻¹ | 4.5 M⁻¹ s⁻¹ | – | 3.17 M⁻¹ s⁻¹ | 2.83 M⁻¹ s⁻¹ | –
O=C(C[n+]1ccc(/C=N/O)cc1)Nc1nc(-c2ccccc2)cs1 | 0.057 min⁻¹ | 45 M⁻¹ s⁻¹ | 0.082 min⁻¹ | 15.8 M⁻¹ s⁻¹ | 20.8 M⁻¹ s⁻¹ | 0.047 min⁻¹
O=C(C[n+]1ccc(/C=N/O)cc1)Nc1nccs1 | 0.06 min⁻¹ | 65.3 M⁻¹ s⁻¹ | 0.059 min⁻¹ | 15.8 M⁻¹ s⁻¹ | 44.3 M⁻¹ s⁻¹ | 0.08 min⁻¹
COc1ccc(-c2csc(NC(=O)C[n+]3cccc(/C=N/O)c3)n2)cc1 | 0.097 min⁻¹ | 14.2 M⁻¹ s⁻¹ | 0.092 min⁻¹ | 2.33 M⁻¹ s⁻¹ | – | –
Cc1ccc(-c2csc(NC(=O)C[n+]3ccc(/C=N/O)cc3)n2)cc1 | 0.067 min⁻¹ | 19.5 M⁻¹ s⁻¹ | 0.07 min⁻¹ | 17.3 M⁻¹ s⁻¹ | 29.5 M⁻¹ s⁻¹ | 0.089 min⁻¹
CCOC(=O)c1csc(NC(=O)C[n+]2ccc(/C=N/O)cc2)n1 | 0.072 min⁻¹ | 70.5 M⁻¹ s⁻¹ | 0.072 min⁻¹ | 28.3 M⁻¹ s⁻¹ | 71.8 M⁻¹ s⁻¹ | 0.063 min⁻¹
C[n+]1ccccc1C=NO | 0.07 min⁻¹ | 65.3 M⁻¹ s⁻¹ | 0.085 min⁻¹ | 49.2 M⁻¹ s⁻¹ | 36.5 M⁻¹ s⁻¹ | 0.076 min⁻¹
COc1ccc(-c2csc(NC(=O)C[n+]3ccc(/C=N/O)cc3)n2)cc1 | 0.055 min⁻¹ | 12.5 M⁻¹ s⁻¹ | 0.053 min⁻¹ | 10.5 M⁻¹ s⁻¹ | 11 M⁻¹ s⁻¹ | 0.059 min⁻¹
O=C(C[n+]1cccc(/C=N/O)c1)Nc1nccs1 | 0.095 min⁻¹ | 16 M⁻¹ s⁻¹ | 0.076 min⁻¹ | 11 M⁻¹ s⁻¹ | 14.8 M⁻¹ s⁻¹ | 0.079 min⁻¹
CCOC(=O)Cc1csc(NC(=O)C[n+]2cccc(/C=N/O)c2)n1 | 0.086 min⁻¹ | 14.7 M⁻¹ s⁻¹ | 0.074 min⁻¹ | 11.3 M⁻¹ s⁻¹ | 12.7 M⁻¹ s⁻¹ | 0.079 min⁻¹
